Earlier results, collected in paper PMC544850.

Chains of the proteins cited; added tags and fusions are not shown. Residues count along the entry.
UniProt P01589, 22-240, chain 1 of 3: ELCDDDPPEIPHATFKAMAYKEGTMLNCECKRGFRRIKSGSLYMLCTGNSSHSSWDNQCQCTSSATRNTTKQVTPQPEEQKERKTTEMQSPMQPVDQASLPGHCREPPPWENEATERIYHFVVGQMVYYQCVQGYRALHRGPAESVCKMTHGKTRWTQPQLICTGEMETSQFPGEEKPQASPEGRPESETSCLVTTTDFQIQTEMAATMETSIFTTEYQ
UniProt P60568, 21-153: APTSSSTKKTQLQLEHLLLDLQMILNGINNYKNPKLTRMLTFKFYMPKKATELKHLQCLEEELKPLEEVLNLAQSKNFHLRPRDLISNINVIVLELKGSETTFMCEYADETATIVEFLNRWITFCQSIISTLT

Target: IL2R (Homo sapiens) (UniProt P01589)

For IL2 (from UniProt P60568), the Kd is listed as 0.01 nM.
